Data taken from PubChem BioAssay AID1554 (Broad Institute, 2009).
Only a part is listed here, and it is no random draw. Activity calls are given as the source filed them. Cut-off read from the data, not from the text of the source: active = inhibition above about 50%; inconclusive = no clear call, values can overlap the other calls; inactive = below that.

assay: PubChem AID 1554; details: BJeLR (HRASV12) viability, CellTiter-Glo ATP luminescence, 48 h; active compounds read high; concentration not given here

SMILES	inhibition
O=[N+]([O-])c1cccc(NC2=NCC(CBr)S2)c1 (centres undefined)	inactive: 0.561%
O=C(O)CNc1ccc([As](=O)(O)O)cc1	inactive: -5.84%
CC(C)(C)C(=O)NC(Sc1ccncn1)C(Cl)(Cl)Cl (centres undefined)	inactive: 1.73%
O=[N+]([O-])c1ncn(CCn2ncnc2[N+](=O)[O-])n1	inactive: 5.28%
O=C(Nc1cc([As](=O)(O)O)ccc1O)c1ccccc1	inactive: 10.9%
CCOC(=O)c1ccc(NP(C)(=O)Oc2ccc(Cl)cc2)cc1 (centres undefined)	inactive: 5.67%
CP(=O)(OC12CC3CC(CC(C3)C1)C2)OC12CC3CC(CC(C3)C1)C2	inactive: 0.961%
Nc1ccc2c(ccc3cccnc32)n1.O=[N+]([O-])c1cc([N+](=O)[O-])c(O)c([N+](=O)[O-])c1	inactive: 2.96%
CN(C)C(=O)OCCc1n(C)cc[n+]1C	inactive: 6.9%
CC(C)=N/N=C(\N)N[N+](=O)[O-]	inactive: -4.65%
CN(C)C(=O)c1c([N+](=O)[O-])cc([N+](=O)[O-])cc1[N+](=O)[O-]	inactive: -5.28%
CC1CCN(C(=O)Oc2c(Cl)cc(Cl)c3cccnc23)CC1	inactive: 2.23%
C[N+]1=C2C=CC=CC=C2SC12C([N+](=O)[O-])=CC([N+](=O)[O-])=C[C-]2[N+](=O)[O-] (centres undefined)	inactive: 11.1%
Nc1ccc([As](=O)(O)c2ccc(N)cc2)cc1	inactive: -11.8%
CC(C)(C)c1ccc(OP(C)(=O)O)cc1	inactive: -4.18%
CP(=O)(Nc1ccc(Cl)cc1)Oc1ccc(F)cc1 (centres undefined)	inactive: -14.5%
CCN(/C(=N/P(=O)(N1CCOCC1)N1CCOCC1)N1CCOCC1)c1ccc(OC)cc1	inactive: 1.07%
O=C(OCCCN1CCCC1)C(O)(c1ccccc1)C1CCCCC1 (centres undefined)	inactive: -1.82%
COc1ccccc1OP(C)(=O)Nc1c(C)n(C)n(-c2ccccc2)c1=O (centres undefined)	inactive: -4.14%
CC(=O)N1C2C3N(C(C)=O)C1C1N(C(C)=O)C(C(N1C(C)=O)N3C(C)=O)N2C(C)=O	inactive: 3.23%
O=[N+]([O-])c1cccc2n[nH]nc12	inactive: -1.04%
O=[N+]([O-])c1cc([N+](=O)[O-])c(CCNc2ccccc2)c([N+](=O)[O-])c1	inactive: -1.86%

SMILES	inhibition
CCc1nc2c(n1)c1c(non1O)c1c2no[n+]1[O-]	inactive: -2.66%
CCc1ccc(OP(C)(=O)Nc2cccnc2)cc1 (centres undefined)	inactive: -5.54%
CP(=O)(Oc1ccccc1)N1CCOC1=O (centres undefined)	inactive: 11.7%
Cc1ccc(NP(=O)(Oc2ccccc2)Oc2ccccc2)nc1	inactive: -5.41%
COc1ccc(OP(C)(=O)Nc2ccc(Br)cc2)cc1 (centres undefined)	inactive: 7.71%
COc1ccc(C2=NCC(CBr)S2)cc1 (centres undefined)	inactive: 11%
CCN(CC)CC(O)COC(=O)C(O)(c1ccccc1)C1CCCCC1 (centres undefined)	inactive: -2.76%
COc1ccccc1OP(C)(=O)Nc1ccc(C)cc1C (centres undefined)	inactive: -5.46%
CP(=O)(Nc1ccccn1)Oc1ccccc1 (centres undefined)	inactive: 9.44%
CCc1ccc(OP(C)(=O)O)cc1	inactive: -1.44%
CC(C)CC(=O)NC(Sc1ccc(Cl)cc1)C(Cl)(Cl)Cl (centres undefined)	inactive: -6.79%
Nc1cc(N)c2nonc2c1[N+](=O)[O-]	inactive: 11.9%
Cc1c(NP(C)(=O)Oc2ccc(C(C)C)cc2)c(=O)n(-c2ccccc2)n1C (centres undefined)	inactive: 2.64%
Cc1c2non([O-])c-2c(C)[n+](=O)[n+]1[O-]	inactive: 9.83%
O=C(NC(Sc1ccncn1)C(Cl)(Cl)Cl)c1ccccc1 (centres undefined)	inactive: 1.33%
Oc1ccccc1CNc1ccccn1	inactive: -8.11%
Cc1ccc(OP(=O)(Nc2nccs2)Oc2ccc(C)cc2)cc1	inactive: 4.16%
COc1ccc(OP(C)(=O)Nc2ccccn2)cc1 (centres undefined)	inactive: -6.77%
COc1ccccc1OP(=O)(Nc1ccc(C)cn1)Oc1ccccc1OC	inactive: 8.75%
CN(C)CCOC(=O)C(O)(c1ccccc1)C1CCCC1 (centres undefined)	inactive: 2.85%
Clc1ccc(Cl)c(NC2=NCC(CBr)S2)c1 (centres undefined)	inactive: 11.9%
CN1CCCC(OC(=O)C(c2ccccc2)c2ccccc2)C1 (centres undefined)	inactive: -1.76%

SMILES	inhibition
NC(=O)c1cc([N+](=O)[O-])cc([N+](=O)[O-])c1N	inactive: 13.6%
Cc1ccc(N/C(=N/P(=O)(N2CCOCC2)N2CCOCC2)N2CCOCC2)cc1	inactive: 7.29%
COc1ccccc1OP(C)(=O)Nc1ccc(Br)cc1 (centres undefined)	inactive: -0.283%
CCN(N=Nc1nonc1N)c1nonc1N	inactive: 9.26%
CP(=O)(OCCOc1ccccc1)OCCOc1ccccc1	inactive: 10.6%
CP(=O)(Nc1ccc(Cl)cc1Cl)Oc1ccccc1 (centres undefined)	inactive: -14.2%
Nc1cccc2ccc([As](=O)(O)O)cc12	inactive: 1.48%
Cc1nc2ccc3ccccc3c2o1.O=[N+]([O-])c1cc([N+](=O)[O-])c(O)c([N+](=O)[O-])c1	inactive: 2.83%
O=[N+]([O-])c1cc([N+](=O)[O-])c(CCN2CCOCC2)c([N+](=O)[O-])c1	inactive: 1.24%
CN(C(=O)Cc1ccc(Cl)c(Cl)c1)[C@H]1CCCC[C@@H]1N1CCCC1	inactive: 4.35%
Cc1ccc(NP(=O)(Oc2ccccc2F)Oc2ccccc2F)nc1	inactive: 0.17%
COc1ccccc1OP(C)(=O)Nc1ccc(C)c(C)c1 (centres undefined)	inactive: 8.05%
CCOP(=O)(Nc1ccccc1)OCC	inactive: 5.11%
Cc1cc(SC(NC(=O)c2ccc(F)cc2)C(Cl)(Cl)Cl)ncn1 (centres undefined)	inactive: -6.47%
COc1ccc(OP(C)(=O)Nc2ccccc2Br)cc1 (centres undefined)	inactive: -3.56%
O=C(O)c1ccccc1[As](=O)(O)O	inactive: 0.894%
CC(=O)Nc1ccc([As](=O)(O)O)cc1	inactive: -0.0559%
Cc1cc(C)cc(OP(C)(=O)Nc2cccc(C(F)(F)F)c2)c1 (centres undefined)	inactive: -8.16%
O=P(Nc1nc2ccc(Cl)cc2s1)(c1ccccc1)c1ccccc1	inactive: 2.35%
CP(=O)(Nc1ccccc1)Oc1ccc(F)cc1 (centres undefined)	inactive: -9.87%
